Source: patent US9426989B2 (priority 2010, dated 2016)

Assay: Stability of the compounds assessed by NMR (PBS, MEM)

## CCCC(OO)OO
MEM: 24 hours, 5° C.
  Degradation: 11%
MEM: 24 hours, 25° C.
  Degradation: 15%
MEM: 24 hours, 37° C.
  Degradation: 30%
PBS: 16 hours, 2-8° C., then 3 hours at 37° C.
  Degradation: None
